# Test results reported in PMC3003779 (Chemistry & biology, 2010).
# Protein sequences, listed by entry. Tags and fused reporters are not part of them.
# UniProt O08914, whole entry: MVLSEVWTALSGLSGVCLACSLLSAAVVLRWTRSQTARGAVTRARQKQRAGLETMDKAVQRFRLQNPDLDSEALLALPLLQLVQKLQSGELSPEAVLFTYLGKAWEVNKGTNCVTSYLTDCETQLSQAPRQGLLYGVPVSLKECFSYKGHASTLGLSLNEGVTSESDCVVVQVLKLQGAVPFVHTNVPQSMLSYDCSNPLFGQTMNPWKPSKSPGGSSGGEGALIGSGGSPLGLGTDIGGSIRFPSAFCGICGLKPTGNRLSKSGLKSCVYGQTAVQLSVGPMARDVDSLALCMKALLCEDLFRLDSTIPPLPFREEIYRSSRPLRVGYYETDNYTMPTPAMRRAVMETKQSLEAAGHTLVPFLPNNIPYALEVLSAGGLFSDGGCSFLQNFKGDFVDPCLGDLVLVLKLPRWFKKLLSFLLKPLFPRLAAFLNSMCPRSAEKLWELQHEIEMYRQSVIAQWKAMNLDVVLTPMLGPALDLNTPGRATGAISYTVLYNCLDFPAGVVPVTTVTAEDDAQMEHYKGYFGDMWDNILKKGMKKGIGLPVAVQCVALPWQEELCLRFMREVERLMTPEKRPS
# Where two headings read alike, the source gives them in different places.
# Target: FAAH (Mus musculus, UniProt O08914)
# Test: in vivo
# Conditions: for inhibition at 1 mg/kg: ip
smiles,measurement,setting,value
"O=S(=O)(F)CCCCCc1ccc(O)cc1 [AM3506, 5-(4-hydroxyphenyl)pentanesulfonyl fluoride]",FAAH activity in brain and liver after in vivo administration,"1 mg/kg i.p., 1 h",blocked FAAH activity in brain but not in liver
same,inhibition at 1 mg/kg,"read-out: FAAH inhibition, duration, 1 mg/kg i.p., 12 hours",~90%
same,inhibition at 1 mg/kg,"read-out: FAAH inhibition, duration, 1 mg/kg i.p., 24 hours",~80%
same,inhibition at 1 mg/kg,"read-out: FAAH inhibition, duration, 1 mg/kg i.p., up to 2 hours",> 99%
